# Binding of CDR-mutated scFvs to a peptide of the spike HR2 region

From the AlphaSeq antibody data of Engelhart et al. 2022 (doi:10.1038/s41597-022-01779-4), copy in the FLAb collection.

Target peptide (SARS-CoV-2 spike, HR2 region): PDVDLGDISGINAS

Ab-91 is the parent antibody, in scFv form: VL, then a (GGGGS)3 linker, then VH. The light chain is unchanged in all variants.
VL: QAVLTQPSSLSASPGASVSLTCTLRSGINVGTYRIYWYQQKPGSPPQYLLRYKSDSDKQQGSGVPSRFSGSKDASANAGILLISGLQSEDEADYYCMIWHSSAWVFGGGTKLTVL
VH: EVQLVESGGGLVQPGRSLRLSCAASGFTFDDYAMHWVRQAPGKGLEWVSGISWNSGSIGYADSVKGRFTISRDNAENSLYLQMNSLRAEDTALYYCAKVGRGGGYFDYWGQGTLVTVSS

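Phage display of a naive human antibody library on the peptide gave the parent. In library AAYL51, one, two or three CDR residues were substituted; doubles and triples were drawn at random. Affinity was read by AlphaSeq, a pooled yeast mating assay with surface-displayed partners. After mating in shaken culture at 30 °C for 16 h, diploids were selected and their barcode pairs sequenced. A regression on co-assayed BCL2-family reference pairs converts the normalised counts of each replicate to an apparent Kd. Mating was done three times.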

Changes read parent residue, position, new residue, counted from the first residue of the VH shown. This list gathers variants with a substitution at A61 (VH, numbered from residue 1). Values are log10 of the apparent Kd in nM; lower means stronger binding. Replicates are averaged; those with no signal do not enter the mean. An entry "nd" has no value in the source: the pair was not observed among the diploids in that replicate. This suggests poor binding but is not conclusive. Empty control strains, which show no peptide, gave a signal in 21% of pairings with library AAYL51; the median was 4.54 and 95% of these signals were weaker than 3.26. No background was subtracted. For reference, the parent read 1.86 as the reference entry and 0.88 as a member of this library.

Variant W53Y I58G A61E gave nd, nd, nd. For D31I A61C, the assay gave nd, nd, nd. With W53V A61D G102Y the result was 1.82, 1.73, 1.79 (mean 1.78). Variant Y32C I51A A61E showed nd, nd, nd. For G59N A61C G103V, the assay gave nd, nd, nd. For F27Y N54I A61N, the assay gave nd, nd, nd. Variant S57E Y60L A61G gave 1.60, 1.35, 1.38 (mean 1.44). With M34C A61M F106E the result was nd, nd, 3.32.

For G26Q Y60E A61P, the assay gave 4.60, nd, nd. Variant A61N D62Q F106S showed 2.84, nd, nd. Variant A61L S63Y V99C gave 3.08, nd, nd. Variant D31M A61D D107H showed nd, nd, nd. For D31F Y60M A61D, the assay gave nd, nd, nd. Variant F27S M34T A61Y showed 5.16, 6.24, nd (mean 5.70). For Y32A G59Q A61P, the assay gave 5.11, nd, nd. Variant A61C gave nd, 4.24, 2.62 (mean 3.43).

Variant A61Y showed 2.78, 2.39, 1.96 (mean 2.38). For D31F M34N A61D, the assay gave nd, nd, nd. Variant S57Q A61L F106T showed 4.29, nd, nd. Variant A61W D107Q showed 4.66, 6.25, 5.10 (mean 5.34). For A61R D62L G102K, the assay gave nd, nd, nd. Variant Y32I S55E A61H gave 5.47, nd, nd. Variant T28D H35D A61Q showed nd, 4.32, nd. Variant A61S V64Y showed nd, nd, nd.

For A61C D62I D107M, the assay gave 4.33, 4.98, nd (mean 4.65). For T28C S55P A61F, the assay gave nd, nd, nd. Variant A61P Y105S showed nd, nd, nd. With S55W S57H A61F the result was 4.81, nd, nd. Variant A61L K65P Y108F showed nd, nd, 4.99. Variant D30A A61V G104Y showed 5.04, nd, 5.08 (mean 5.06). Variant A33S A61W K65A gave nd, 4.52, 4.16 (mean 4.34). Variant Y32W N54A A61C showed nd, nd, nd.

For A61F G102Y F106P, the assay gave nd, nd, nd. Variant A61G G100S showed nd, nd, nd.

Extract of 5 entries:

changes,"log10 Kd, replicates",mean log10 Kd (nM)
S57Q A61L F106T,"4.29, nd, nd",4.29
F27S M34T A61Y,"5.16, 6.24, nd",5.70
D31I A61C,"nd, nd, nd",nd
W53Y I58G A61E,"nd, nd, nd",nd
Y32I S55E A61H,"5.47, nd, nd",5.47